This assay deals with purified recombinant LSD1 (Homo sapiens, UniProt O60341). To be noted: 10000.0.

Each structure is given as a SMILES string.

For `N=C(NCCCNCCCCCCCNCCCNC(=N)NC(=N)NCCC(c1ccccc1)c1ccccc1)NC(=N)NCCC(c1ccccc1)c1ccccc1` [compound 3, verlindamycin, reference compound], the “% Inhib. of LSD1 at 10 μM” value is 95%.

These data come from US9186391B2, “Cyclic peptide inhibitors of lysine-specific demethylase 1” (MUSC FOUNDATION FOR RESEARCH DEVELOPMENT, priority 2013, dated 2015).
